Earlier results as cited in article PMC3413252.

By UniProt entry, the sequences of proteins in these tests, tags left out. Residues count along the entry.
UniProt P40189, 23-619: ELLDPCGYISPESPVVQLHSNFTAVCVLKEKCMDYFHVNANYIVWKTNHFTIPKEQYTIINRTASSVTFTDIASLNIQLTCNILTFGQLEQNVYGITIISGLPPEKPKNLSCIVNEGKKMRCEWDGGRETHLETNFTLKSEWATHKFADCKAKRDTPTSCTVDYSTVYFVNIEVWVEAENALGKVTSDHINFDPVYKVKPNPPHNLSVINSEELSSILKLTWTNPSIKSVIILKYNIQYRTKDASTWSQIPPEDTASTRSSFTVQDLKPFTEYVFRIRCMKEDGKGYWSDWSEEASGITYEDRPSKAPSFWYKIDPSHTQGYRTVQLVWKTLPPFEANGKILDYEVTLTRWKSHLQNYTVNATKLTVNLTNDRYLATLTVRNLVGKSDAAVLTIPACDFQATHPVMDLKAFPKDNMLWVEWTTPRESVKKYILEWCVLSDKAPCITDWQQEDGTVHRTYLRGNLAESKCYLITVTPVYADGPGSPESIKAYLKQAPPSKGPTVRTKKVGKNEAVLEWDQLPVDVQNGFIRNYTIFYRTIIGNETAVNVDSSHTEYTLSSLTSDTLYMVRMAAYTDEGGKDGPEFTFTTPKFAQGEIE
UniProt P05231, 30-212: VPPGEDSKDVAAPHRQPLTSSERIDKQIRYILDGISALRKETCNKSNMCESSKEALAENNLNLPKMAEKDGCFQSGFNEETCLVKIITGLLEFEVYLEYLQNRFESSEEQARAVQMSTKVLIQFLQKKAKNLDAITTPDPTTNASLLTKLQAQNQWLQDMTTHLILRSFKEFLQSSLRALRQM

Target: soluble gp130 (UniProt P40189)

- Kd: 3 nM
Substance: IL6 (active, receptor-bound) (from UniProt P05231)
